From EP1731520A1

Amino acid sequences for entries named in this document (tags omitted).
UniProt P30542, whole entry: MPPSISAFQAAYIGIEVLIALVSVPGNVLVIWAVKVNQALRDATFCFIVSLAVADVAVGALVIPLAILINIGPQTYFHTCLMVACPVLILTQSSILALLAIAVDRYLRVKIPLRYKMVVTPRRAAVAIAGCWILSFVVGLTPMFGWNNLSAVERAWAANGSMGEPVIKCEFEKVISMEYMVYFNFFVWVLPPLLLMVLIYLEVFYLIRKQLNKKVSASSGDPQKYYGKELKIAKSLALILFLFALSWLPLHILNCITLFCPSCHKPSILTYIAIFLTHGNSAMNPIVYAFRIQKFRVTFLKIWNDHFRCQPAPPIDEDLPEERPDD
UniProt P0DMS8, whole entry: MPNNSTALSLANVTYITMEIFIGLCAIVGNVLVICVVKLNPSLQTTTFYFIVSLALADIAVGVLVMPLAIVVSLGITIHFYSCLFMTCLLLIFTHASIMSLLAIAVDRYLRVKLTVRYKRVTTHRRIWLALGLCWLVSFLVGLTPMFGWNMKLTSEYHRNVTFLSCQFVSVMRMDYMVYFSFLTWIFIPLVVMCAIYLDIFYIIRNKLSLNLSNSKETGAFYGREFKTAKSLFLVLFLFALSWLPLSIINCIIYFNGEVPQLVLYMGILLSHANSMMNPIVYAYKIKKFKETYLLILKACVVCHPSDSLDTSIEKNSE

Experiments:
[1] = molecular target: T1, human A1 receptor subtype (Homo sapiens, UniProt P30542)
[2] = molecular target: human adenosine A1 receptor (Homo sapiens, UniProt P30542); conditions: read-out: Al Yeast IC50
[3] = molecular target: human A3 receptor subtype (Homo sapiens, UniProt P0DMS8); test: Adenosine 3 receptor competition radioligand binding, [125I] AB-MECA, HEK293 membranes; conditions: for Ki: read-out: Binding Ki (nM) A3, Table 13
[4] = molecular target: T1, human A1 receptor subtype; test: biochemical
[5] = molecular target: human A2a receptor; conditions: read-out: Reported Ki; agonist; cited from earlier work
[6] = molecular target: T2, human A2b receptor subtype (Homo sapiens, UniProt P29275); test: Adenosine 2b receptor subtype competition radioligand binding, [3H] DPCPX, HEK293 membranes; conditions: read-out: Binding Ki (nM) A2b; Table 13
T2 sequence (P29275 1-332): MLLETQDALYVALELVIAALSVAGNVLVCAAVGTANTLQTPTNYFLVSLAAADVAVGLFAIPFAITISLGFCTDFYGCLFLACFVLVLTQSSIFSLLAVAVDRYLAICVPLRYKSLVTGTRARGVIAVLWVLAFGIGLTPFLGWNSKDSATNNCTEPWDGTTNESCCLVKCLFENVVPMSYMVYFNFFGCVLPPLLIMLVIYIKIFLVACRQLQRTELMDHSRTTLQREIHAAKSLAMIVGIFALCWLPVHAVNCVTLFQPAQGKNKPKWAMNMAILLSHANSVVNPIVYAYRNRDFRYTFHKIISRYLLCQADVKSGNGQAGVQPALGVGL

[7] = read-out: Binding Ki (nM) A1, Table 13, Profile of Selective Adenosine Antagonists

**Q.** For `Cc1[nH]c2nc(-c3ccco3)nc(N[C@H]3CC[C@H](O)CC3)c2c1C` [Compound 702], which Ki ([1]; read-out: Al Binding Ki, Table 7, Effect of C2-Substituent) is on record?
**A.** The Ki was 198 nM.

**Q.** With `Cc1c(C)n(C(C)c2ccccc2)c2nc(-c3ccoc3)nc(N[C@H]3CC[C@H](O)CC3)c12` (some centres unmarked) [Compound 803] as the molecule, how does the Ki ([1]; read-out: Al Binding Ki, Table 8, Effect of Pyrrole Ring Substituent) read?
**A.** Its Ki is 2210 nM.

**Q.** What about the IC50 ([2]; Table 8, Effect of Pyrrole Ring Substituent) of the same molecule?
**A.** The IC50 was over 10000 nM.

**Q.** For `CC(=O)NC1CCCN(c2nc(-c3ccccc3)nc3[nH]c(C)c(C)c23)C1` (centres unmarked) [Compound 1309], which “Ki-A3 (selectivity versus other three subtypes)” value ([3]; Table 17, Adenosine A3 Receptor Selective Compounds) is on record?
**A.** The value was “* (at least 10 times more selective than other three subtypes.)”.

**Q.** Which Ki ([1]; Table 5, membranes from yeast cells transformed with human A1 receptor subtype) does the source give for `CC(=O)NCCNc1nc(-c2ccccc2)nc2[nH]c(C)c(C)c12` [Compound 1002] here?
**A.** The Ki was 9.8 nM.

**Q.** With `O[C@H]1CC[C@H](Nc2nc(-c3ccccc3)nc3[nH]ccc23)CC1` [Compound 1318] as the molecule, how does the Ki [4] read?
**A.** The Ki was 3.7 ± 0.5 nM.

**Q.** With `CC(Cc1ccccc1)Nc1ncnc2c1ncn2[C@@H]1O[C@H](CO)[C@@H](O)[C@H]1O` (single isomer, unassigned; (-)) [PIA] as the molecule, how does the Ki [5] read?
**A.** The Ki was 100 to 125 nM.

**Q.** With `Cc1[nH]c2nc(-c3ccccc3)nc(N[C@@H]3CC[C@H](O)C3)c2c1C` (racemic) [Compound 1308] as the molecule, how does the Ki [3] read?
**A.** The Ki was 1 nM.

**Q.** And the Ki [1, 7]?
**A.** The Ki was 180 nM.

**Q.** What about the Ki [6] of the same molecule?
**A.** The Ki was 670 nM.

**Q.** With `Cc1[nH]c2nc(-c3ccccc3)nc(N[C@@H]3CC[C@@H](O)C3)c2c1C` (racemic) [Compound 1307] as the molecule, how does the Ki [3] read?
**A.** Its Ki is 3.1 nM.

**Q.** What about the Ki [6] of the same molecule?
**A.** Its Ki is 1140 nM.

**Q.** Which Ki [1, 7] does the source give for `CC(=O)NCCNc1nc(-c2ccccc2)nc2[nH]c(C)c(C)c12` [Compound 1300] here?
**A.** The Ki was 9.8 to 25.1 nM.

**Q.** With `Cc1[nH]c2nc(-c3ccccc3)nc(NCCC(=O)O)c2c1C` [Compound 1204] as the molecule, how does the IC50 ([2]; Table 12, "Retro-Amide" Analogues) read?
**A.** The IC50 was over 10000 nM.

Where two headings read alike, the source gives them in different places.
